Measured values as given in patent US20070072831A1, “Integrase inhibitor compounds” (GILEAD SCIENCES, INC., priority 2005, published 2007).

Molecular target: HIV integrase (Human immunodeficiency virus type 1 group M subtype B, UniProt P04585)
Test: biochemical

SMILES | IC50 [nM]
CN(c1c2c(c(O)c3ncccc13)C(=O)N(Cc1ccc(F)cc1)C2)S(=O)(=O)CCCN1CCOCC1 [Compound 46, N-(7-(4-fluorobenzyl)-9-hydroxy-8-oxo-7,8-dihydro-6H-pyrrolo[3,4-g]quinolin-5-yl)-N-methyl-3-morpholinopropane-1-sulfonamide] | < 60
CN(c1c2c(c(O)c3ncccc13)C(=O)N(Cc1ccc(F)cc1)C2)S(=O)(=O)CCCC#N [Compound 48, 3-cyano-N-(7-(4-fluorobenzyl)-9-hydroxy-8-oxo-7,8-dihydro-6H-pyrrolo[3,4-g]quinolin-5-yl)-N-methylpropane-1-sulfonamide] | < 60
CN(c1c2c(c(O)c3ncccc13)C(=O)N(Cc1ccc(F)cc1)C2)S(=O)(=O)CCCn1ccnc1 [Compound 49, N-(7-(4-fluorobenzyl)-9-hydroxy-8-oxo-7,8-dihydro-6H-pyrrolo[3,4-g]quinolin-5-yl)-3-(1 H-imidazol-1-yl)-N-methylpropane-1-sulfonamide] | 60 to 1000
